Biological target: Serine/threonine-protein kinase mTOR (Homo sapiens, UniProt P42345)

CC(C)n1nc(-c2cc3c(Cl)c(O)ccc3[nH]2)c2c(N)ncnc21 [US9828378, # 22]
IC50: < 5 nM
